Measurements as given in patent publication US8877778B2, “Benzofurane compounds” (Hoffmann-La Roche Inc., priority 2010, dated 2014).

The chains behind the UniProt entries cited, without tags or fusion partners.
UniProt P35462, whole entry: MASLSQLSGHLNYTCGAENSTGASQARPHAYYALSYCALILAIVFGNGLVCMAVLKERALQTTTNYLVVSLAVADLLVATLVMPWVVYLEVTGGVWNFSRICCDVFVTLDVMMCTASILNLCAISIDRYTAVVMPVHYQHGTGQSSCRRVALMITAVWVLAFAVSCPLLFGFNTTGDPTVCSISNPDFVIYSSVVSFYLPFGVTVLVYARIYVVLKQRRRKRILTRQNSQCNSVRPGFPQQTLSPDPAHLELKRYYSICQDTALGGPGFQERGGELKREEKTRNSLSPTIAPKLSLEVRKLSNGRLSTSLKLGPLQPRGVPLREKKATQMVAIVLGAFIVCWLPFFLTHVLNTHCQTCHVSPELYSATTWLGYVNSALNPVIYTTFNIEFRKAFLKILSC
UniProt P14416, whole entry: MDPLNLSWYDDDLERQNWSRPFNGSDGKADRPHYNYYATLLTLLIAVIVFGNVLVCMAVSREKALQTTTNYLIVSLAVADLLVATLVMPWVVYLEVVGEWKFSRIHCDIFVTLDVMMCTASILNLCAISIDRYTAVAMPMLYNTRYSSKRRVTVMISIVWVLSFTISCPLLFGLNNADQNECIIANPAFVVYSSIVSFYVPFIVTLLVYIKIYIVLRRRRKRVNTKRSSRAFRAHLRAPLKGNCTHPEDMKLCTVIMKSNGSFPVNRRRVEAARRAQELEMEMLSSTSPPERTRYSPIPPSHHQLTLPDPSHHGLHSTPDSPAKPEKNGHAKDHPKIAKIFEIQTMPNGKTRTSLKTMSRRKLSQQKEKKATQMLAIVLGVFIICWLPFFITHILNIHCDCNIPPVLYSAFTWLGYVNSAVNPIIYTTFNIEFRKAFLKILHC
UniProt P28223, whole entry: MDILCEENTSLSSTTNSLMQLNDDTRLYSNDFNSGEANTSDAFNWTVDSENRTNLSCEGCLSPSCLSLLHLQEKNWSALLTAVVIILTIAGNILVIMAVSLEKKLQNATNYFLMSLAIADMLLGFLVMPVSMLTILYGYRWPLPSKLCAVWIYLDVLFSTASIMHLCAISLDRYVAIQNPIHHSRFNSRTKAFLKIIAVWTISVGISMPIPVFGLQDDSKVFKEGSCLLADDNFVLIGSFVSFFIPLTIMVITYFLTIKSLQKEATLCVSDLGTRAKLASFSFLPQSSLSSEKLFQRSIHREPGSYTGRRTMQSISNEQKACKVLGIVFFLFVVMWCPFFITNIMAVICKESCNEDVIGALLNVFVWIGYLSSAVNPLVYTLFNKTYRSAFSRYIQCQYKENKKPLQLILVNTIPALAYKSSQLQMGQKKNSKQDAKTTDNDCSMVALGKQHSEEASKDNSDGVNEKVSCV

Experiments:
human D3 receptor = human D3 receptor (Homo sapiens (Human), UniProt P35462); assay: Radioligand binding ([3H]-spiperone) to cloned receptors expressed in HEK-293 EBNA cells; conditions: HEK293 EBNA cell membranes expressing human D3
Method: (§1) The ability of the compounds to bind to the 5-HT2A, D3 and D2 receptors was determined using radioligand binding to cloned receptors selectively expressed in HEK-293 EBNA cells.
(§2) HEK293 EBNA cells were transiently transfected with expression plasmids encoding for the human D2 or D3 or for the human 5-HT2A receptor, respectively. The cells were harvested 48 h post-transfection, washed three times with cold PBS and stored at −80° C. prior to use. The pellet was suspended in cold 50 mM Tris-HCl buffer comprising 10 mM EDTA (pH 7.4) and was homogenized with a Polytron (Kinematica AG, Basel, Switzerland) for 20-30 sec at 12.000 rpm. After centrifugation at 48.000×g for 30 min at 4° C., the pellet was resuspended in cold 10 mM Tris-HCl buffer comprising 0.1 mM EDTA (pH 7.4), homogenized, and centrifuged as above. This pellet was further resuspended in a smaller volume of ice cold 10 mM Tris-HCl buffer comprising 0.1 mM EDTA (pH 7.4) and homogenized with a Polytron for 20-30 sec at 12.000 rpm. The protein content of this homogenate was determined with the Bio-Rad (Bradford) Protein Assay (Biorad Laboratories GmbH, München, Germany) according to the instructions of the manufacturer using gamma globulin as the standard. This homogenate was stored at −80° C. in aliquots and thawed immediately prior to use.
(§3) Aliquots of membrane preparations were thawed at RT, resupended in assay buffer (D2, D3: 50 mM Tris-HCl, 120 mM NaCl, 5 mM MgCl2, 1 mM EDTA, 5 mM KCl, 1.5 mM CaCl2, pH=7.4; 5-HT2A: 50 mM Tris-HCl, 10 mM MgCl2, 1 mM EGTA, pH=7.4), homogenized with a Polytron for 20-30 sec at 12.000 rpm and adjusted to a final concentration of approximately 7.5 μg protein/well (D2, D3) and 15 μg protein/well (5-HT2A), respectively.
(§4) The binding affinity (Ki) of the compounds was determined using radioligand binding. Membranes were incubated in a total volume of 200 μl with a fixed concentration of radioligand (final concentration approximately 0.7 nM [^3H]-spiperone for D2, 0.5 nM [^3H]-spiperone for D3, and 1.1 nM [^3H]-ketanserin for 5-HT2A) and ten concentrations of test compound in ranging between 10 μM-0.1 nM for 1 h at RT. At the end of the incubation, the reaction mixtures were filtered on to unifilter 96-well white microplates with bonded GF/C filters (Packard BioScience, Zürich, Switzerland; preincubated for 1 h in 0.1% polyethylenimine (PEI) in assay buffer) with a Filtermate 196 harvester (Packard BioScience) and washed 3 times with cold assay buffer. The nonspecific binding was determined with equally composed reaction mixtures in the presence of 10 μM unlabelled spiperone. Per well 45 μl of Microscint 40 (Perkin Elmer, Schwerzenbach, Switzerland) was added, plates for sealed, shaken for 20 min and counted for 3 min on a Topcount Microplate Scintillation Counter (Can berra Packard SA, Zürich, Switzerland) with quenching correction.
(§5) The CPM value for each duplicate of a concentration of competing compound was averaged (y1), then the % specific binding was calculated according to the equation (((y1−non-specific)/(total binding−non-specific))×100). Graphs were plotted with the % specific binding using XLfit, a curve fitting program that iteratively plots the data using Levenberg-Marquardt algorithm. The single site competition analysis equation used was y=A+((B−A)/(1+((x/C)D))), where y is the % specific binding, A is the minimum y, B is the maximum y, C is the IC50, x is the log 10 of the concentration of the competing compound and D is the slope of the curve (the Hill Coefficient). From these curves the IC50 (inhibition concentration at which 50% specific binding of the radioligand was displaced) and Hill coefficient were determined. The affinity constant (Ki) was calculated using the Cheng-Prusoff equation Ki=(IC50/1+([L]/Kd), where [L] is the concentration of radioligand and Kd is the dissociation constant of the radioligand at the receptor as determined by the saturation isotherm.

human D2 receptor = human D2 receptor (Homo sapiens (Human), UniProt P14416); assay: as above; conditions: HEK293 EBNA cell membranes expressing human D2
Method: as §1, §2, §3, §4, §5

human 5-HT2A receptor = human 5-HT2A receptor (Homo sapiens (Human), UniProt P28223); assay: Radioligand binding ([3H]-ketanserin) to cloned receptors expressed in HEK-293 EBNA cells; conditions: HEK293 EBNA cell membranes expressing human 5-HT2A
Method: as §1, §2, §3
The binding affinity (Ki) of the compounds was determined using radioligand binding. […] The nonspecific binding was determined with equally composed reaction mixtures in the presence of 10 μM unlabelled spiperone. Per well 45 μl of Microscint 40 (Perkin Elmer, Schwerzenbach, Switzerland) was added, plates for sealed, shaken for 20 min and counted for 3 min on a Topcount Microplate Scintillation Counter (Can berra Packard SA, Zürich, Switzerland) with quenching correction.
The CPM value for each duplicate of a concentration of competing compound was averaged (y1), then the % specific binding was calculated according to the equation (((y1−non-specific)/(total binding−non-specific))×100). […] The affinity constant (Ki) was calculated using the Cheng-Prusoff equation Ki=(IC50/1+([L]/Kd), where [L] is the concentration of radioligand and Kd is the dissociation constant of the radioligand at the receptor as determined by the saturation isotherm.

Row | SMILES | Ki (human D3 receptor) | Ki (human D2 receptor) | Ki (human 5-HT2A receptor)
1 | O=C(C[C@@H]1COCCO1)N[C@H]1CC[C@H](CCN2CCC(c3cccc4c3CCO4)CC2)CC1 [Example 21, trans-N-(4-{2-[4-(2,3-Dihydro-benzofuran-4-yl)-piperidin-1-yl]-ethyl}-cyclohexyl)-(R)-2-[1,4]dioxan-2-yl-acetamide] | 9 nM | 420 nM | –
2 | O=C(N[C@H]1CC[C@H](CCN2CCC(c3cccc4c3CCO4)CC2)CC1)C1CCCOC1 (mixture of isomers) [Example 54, (RS)-Tetrahydro-pyran-3-carboxylic acid trans-(4-{2-[4-(2,3-dihydro-benzofuran-4-yl)-piperidin-1-yl]-ethyl}-cyclohexyl)-amide] | 17.1 nM | – | –
3 | O=C(N[C@H]1CC[C@H](CCN2CCC(c3cccc4c3CCO4)CC2)CC1)C1CCCO1 (mixture of isomers) [Example 53, (RS)-Tetrahydro-furan-2-carboxylic acid trans-(4-{2-[4-(2,3-dihydro-benzofuran-4-yl)-piperidin-1-yl]-ethyl}-cyclohexyl)-amide] | – | 373 nM | –
4 | O=C(CC1COCCO1)N[C@H]1CC[C@H](CCN2CCC(c3cccc4occc34)CC2)CC1 (mixture of isomers) [Example 12, trans-N-{4-[2-(4-Benzofuran-4-yl-piperidin-1-yl)-ethyl]-cyclohexyl}-rac-2-[1,4]dioxan-2-yl-acetamide] | – | – | 4.1 nM
5 | O=C(C[C@H]1COCCO1)N[C@H]1CC[C@H](CCN2CCC(c3cccc4c3CCO4)CC2)CC1 [Example 22, trans-N-(4-{2-[4-(2,3-Dihydro-benzofuran-4-yl)-piperidin-1-yl]-ethyl}-cyclohexyl)-(8)-2-[1,4]dioxan-2-yl-acetamide] | 10.7 nM | 687 nM | –
6 | O=C(N[C@H]1CC[C@H](CCN2CCC(c3cccc4c3CCO4)CC2)CC1)C(O)C(F)(F)F (mixture of isomers) [Example 37, trans-(RS)—N-(4-{2-[4-(2,3-Dihydro-benzofuran-4-yl)-piperidin-1-yl]-ethyl}-cyclohexyl)-3,3,3-trifluoro-2-hydroxy-propionamide] | – | – | 26.1 nM
7 | O=C(C[C@@H]1CCCO1)N[C@H]1CC[C@H](CCN2CCC(c3cccc4c3CCO4)CC2)CC1 [Example 32, trans-N-(4-{2-[4-(2,3-Dihydro-benzofuran-4-yl)-piperidin-1-yl]-ethyl}-cyclohexyl)-(S)-2-(tetrahydro-furan-2-yl)-acetamide] | 11.7 nM | 557 nM | 32.5 nM
8 | CCC(C)C(=O)N[C@H]1CC[C@H](CCN2CCC(c3cccc4c3CCO4)CC2)CC1 (mixture of isomers) [Example 62, trans-N-(4-{2-[4-(2,3-Dihydro-benzofuran-4-yl)-piperidin-1-yl]-ethyl}-cyclohexyl)-(RS)-2-methyl-butyramide] | 16.8 nM | – | –
9 | O=C(C[C@H]1CCCO1)N[C@H]1CC[C@H](CCN2CCC(c3cccc4c3CCO4)CC2)CC1 [Example 31, trans-N-(4-{2-[4-(2,3-Dihydro-benzofuran-4-yl)-piperidin-1-yl]-ethyl}-cyclohexyl)-(R)-2-(tetrahydro-furan-2-yl)-acetamide] | – | 514 nM | 35.7 nM
